A word on the inhibition: it is the drop in the measured response relative to a control, in per cent.

Protein sequences, listed by entry. Tags and fused reporters are not part of them.
UniProt P00519, whole entry, looked up: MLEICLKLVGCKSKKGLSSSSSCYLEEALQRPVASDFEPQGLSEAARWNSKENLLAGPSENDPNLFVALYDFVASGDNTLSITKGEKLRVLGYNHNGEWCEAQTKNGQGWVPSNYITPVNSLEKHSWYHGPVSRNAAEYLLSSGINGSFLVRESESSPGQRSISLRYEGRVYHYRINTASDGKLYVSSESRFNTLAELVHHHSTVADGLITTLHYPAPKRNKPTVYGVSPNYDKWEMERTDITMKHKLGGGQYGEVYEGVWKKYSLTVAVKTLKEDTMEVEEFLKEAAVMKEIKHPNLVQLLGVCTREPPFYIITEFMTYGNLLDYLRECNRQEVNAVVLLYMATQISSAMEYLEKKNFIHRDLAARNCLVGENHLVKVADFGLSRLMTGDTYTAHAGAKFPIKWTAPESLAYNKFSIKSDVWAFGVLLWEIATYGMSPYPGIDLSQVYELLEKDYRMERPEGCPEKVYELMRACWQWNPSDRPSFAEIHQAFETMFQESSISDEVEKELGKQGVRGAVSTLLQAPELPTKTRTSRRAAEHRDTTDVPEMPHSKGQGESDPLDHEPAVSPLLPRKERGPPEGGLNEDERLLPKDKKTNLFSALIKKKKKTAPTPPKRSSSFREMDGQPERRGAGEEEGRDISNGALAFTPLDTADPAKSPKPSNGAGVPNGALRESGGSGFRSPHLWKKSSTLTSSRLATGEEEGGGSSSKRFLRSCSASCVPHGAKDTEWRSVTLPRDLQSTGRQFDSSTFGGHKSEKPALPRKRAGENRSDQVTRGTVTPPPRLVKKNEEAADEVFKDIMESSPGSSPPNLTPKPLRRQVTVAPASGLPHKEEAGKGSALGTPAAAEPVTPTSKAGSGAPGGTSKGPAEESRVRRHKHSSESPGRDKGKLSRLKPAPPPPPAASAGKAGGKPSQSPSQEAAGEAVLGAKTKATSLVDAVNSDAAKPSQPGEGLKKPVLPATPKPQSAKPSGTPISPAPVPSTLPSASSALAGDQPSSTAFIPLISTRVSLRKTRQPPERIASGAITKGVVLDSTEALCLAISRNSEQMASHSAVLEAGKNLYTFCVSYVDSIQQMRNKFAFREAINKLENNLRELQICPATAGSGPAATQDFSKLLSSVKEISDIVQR
UniProt Q13671, whole entry, looked up: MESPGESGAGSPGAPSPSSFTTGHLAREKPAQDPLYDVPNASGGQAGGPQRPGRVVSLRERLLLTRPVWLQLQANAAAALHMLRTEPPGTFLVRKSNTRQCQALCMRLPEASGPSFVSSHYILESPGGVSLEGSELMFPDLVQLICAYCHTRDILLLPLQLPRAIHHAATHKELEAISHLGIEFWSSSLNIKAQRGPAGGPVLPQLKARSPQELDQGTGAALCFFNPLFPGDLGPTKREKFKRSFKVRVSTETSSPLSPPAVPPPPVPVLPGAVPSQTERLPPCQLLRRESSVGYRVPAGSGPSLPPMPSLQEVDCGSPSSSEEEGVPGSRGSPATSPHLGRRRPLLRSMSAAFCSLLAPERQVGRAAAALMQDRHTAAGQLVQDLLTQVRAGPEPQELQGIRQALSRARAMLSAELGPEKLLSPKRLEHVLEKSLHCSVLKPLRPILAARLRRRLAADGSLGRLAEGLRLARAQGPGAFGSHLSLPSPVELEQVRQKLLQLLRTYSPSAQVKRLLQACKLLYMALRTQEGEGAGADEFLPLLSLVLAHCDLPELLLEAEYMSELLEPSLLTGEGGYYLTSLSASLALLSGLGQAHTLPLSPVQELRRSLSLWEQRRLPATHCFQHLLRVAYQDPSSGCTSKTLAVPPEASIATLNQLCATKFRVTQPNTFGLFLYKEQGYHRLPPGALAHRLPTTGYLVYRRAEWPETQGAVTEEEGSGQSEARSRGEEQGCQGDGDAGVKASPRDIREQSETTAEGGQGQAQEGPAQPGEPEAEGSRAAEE

This is a selection; strong and weak results do not stand in their true shares. Some salts and complexes are drawn in separate pieces, as the source files them; their charges need not balance. Active and inactive are the calls of the source. Rule as the data show it: active = inhibition above about 5% (passing the limit was not always enough); inactive = the rest.

In this assay the target is Tyrosine-protein kinase ABL1 (Homo sapiens) + Ras and Rab interactor 1 (Homo sapiens) (UniProt P00519+Q13671). Nature of the assay: disruptors of human Abl and Rin1 association – biochemical, TR-FRET, primary screen (AID 588664). The settings on record: TR-FRET Rin1/Abl binding, at 7.35 µM, hits give high values. A general note: TR-FRET usually uses a lanthanide donor and a delayed reading to cut background.
As to `COc1ccccc1OP(C)(=O)Nc1c(C)cccc1C` (stereo not given), the inhibition was inactive: -3.64%.

For `CN1CCCCC1COC(=O)C1(O)c2ccccc2CCc2ccccc21` (stereo not given), the inhibition is inactive: -3.48%. Consider `CCCOc1ccc(NP(C)(=O)Oc2ccc(Cl)cc2)cc1` (stereo not given), for which the inhibition was inactive: 0.41%.

Consider `CP(=O)(Nc1ccc(SC(F)(F)F)cc1)Oc1ccccc1` (stereo not given), for which the inhibition is inactive: -0.9%. In the case of `CCOC(=O)C(CC)C1=NC(C)(C)Cc2ccccc21.O=[N+]([O-])c1cc([N+](=O)[O-])c(O)c([N+](=O)[O-])c1` (stereo not given), the inhibition was inactive: -3.03%.

`CC1=C2N=C(C=C3N=C(C(C)=C4[N-][C@@](C)([C@@H]5N=C1[C@](C)(CCC(=O)NC[C@@H](C)OP(=O)([O-])O[C@H]1[C@@H](O)[C@@H](n6cnc7cc(C)c(C)cc76)O[C@@H]1CO)[C@H]5CC(N)=O)[C@@](C)(CC(N)=O)[C@@H]4CCC(N)=O)[C@@](C)(CC(N)=O)[C@@H]3CCC(N)=O)C(C)(C)[C@@H]2CCC(N)=O.[C-]#N.[Co+3]`: the inhibition is inactive: 0.66%.

As for `O=[N+]([O-])c1cc([N+](=O)[O-])c(Nc2nnnn2CCO)c([N+](=O)[O-])c1`, the inhibition is inactive: -7.17%. For `O=[N+]([O-])c1cc([N+](=O)[O-])c(-c2cnn(-c3ccccc3)c2)c([N+](=O)[O-])c1`, the inhibition is inactive: -1.93%. For `Cc1nc2ccc3ccccc3c2s1.O=[N+]([O-])c1cc([N+](=O)[O-])c(O)c([N+](=O)[O-])c1`, the inhibition was inactive: 1.35%.

For `O=[N+]([O-])c1cc([N+](=O)[O-])c(-n2nnc3ccccc32)c([N+](=O)[O-])c1`, the inhibition was inactive: 2.84%.

As for `CN(Cc1cccnc1)C(=O)COc1ccc(Cl)c(Cl)c1.O=[N+]([O-])c1cc([N+](=O)[O-])c(O)c([N+](=O)[O-])c1`, the inhibition is inactive: 0.29%. `Cc1cc(C)cc(OP(C)(=O)Nc2ccccn2)c1` (stereo not given): the inhibition is inactive: -2.6%. In the case of `CP(=O)(Nc1cccc(Br)c1)Oc1ccccc1` (stereo not given), the inhibition is inactive: 1.22%. As to `Cc1ccc(C)c(NP(C)(=O)Oc2ccccc2)c1` (stereo not given), the inhibition is inactive: 2.95%.

`COc1ccccc1OP(C)(=O)Nc1cccc(Br)c1` (stereo not given): the inhibition is inactive: -1.61%.

With `Cc1cc(C)cc(OP(C)(=O)Nc2ccc(C)cc2C)c1` (stereo not given), the inhibition was inactive: -1.16%.

On to `CCOC(=O)c1ccc(NP(C)(=O)Oc2cc(C)cc(C)c2)cc1` (stereo not given), for which the inhibition is inactive: -1.83%. As for `CC1=NCCc2c1[nH]c1ccccc21.O=[N+]([O-])c1cc([N+](=O)[O-])c(O)c([N+](=O)[O-])c1`, the figure is inactive: 0.34%. For `O=C(O)c1cccc(Nc2c([N+](=O)[O-])cc([N+](=O)[O-])cc2[N+](=O)[O-])c1`, the inhibition was inactive: -6.06%.

In the case of `CCOC(=O)c1ccc(NP(C)(=O)Oc2ccccc2)cc1` (stereo not given), the inhibition was inactive: 1.63%. Regarding `Cc1ccc(NP(C)(=O)Oc2ccccc2)c(C)c1` (stereo not given), the inhibition is inactive: 0.31%.

`COc1ccccc1OP(C)(=O)Nc1ccc(C)cc1` (stereo not given): the inhibition was inactive: 1.62%.

Turning to `COc1ccc(OP(C)(=O)Nc2cccc(F)c2)cc1` (stereo not given), the inhibition was inactive: -4.84%.

Consider `COc1ccccc1OP(C)(=O)Nc1cc(Cl)ccc1C` (stereo not given), for which the inhibition was inactive: -1.73%. Turning to `Cc1cc(C)cc(OP(C)(N)=O)c1` (stereo not given), the inhibition is inactive: -2.35%. For `O=[N+]([O-])c1cc([N+](=O)[O-])c(Nc2cccnc2)c([N+](=O)[O-])c1` the value was inactive: -5.7%. For `Cc1cccc(C)c1OP(C)(N)=O` (stereo not given) the value was inactive: -2.15%. As for `CC(C)(C)c1ccc(OP(C)(=O)Nc2ccc(SC(F)(F)F)cc2)cc1` (stereo not given), the figure is inactive: -1.26%; as for `O=[N+]([O-])c1ccc2c(c1)C=Nc1ccccc1O2`, inactive: -4.49%.

As to `CCN(CC)CCCOC(=O)C(O)(c1ccccc1)c1ccccc1`, the inhibition is inactive: 3.61%.

On to `CCOP(C)(=S)SCC(=O)NC(C)C(=O)O` (stereo not given), for which the inhibition is inactive: 3.1%.

On to `CCOC(=O)c1ccc(NP(C)(=O)Oc2ccc(OC)cc2)cc1` (stereo not given), for which the inhibition was inactive: 1.32%.

For the compound `O=[N+]([O-])c1cc([N+](=O)[O-])c(O)c([N+](=O)[O-])c1.c1ccc(Oc2ccncc2)cc1`, the inhibition was inactive: -2.77%. For `CP(=O)(Nc1ccccn1)Oc1ccc(Cl)cc1` (stereo not given) the value was inactive: 0.88%; for `CP(=O)(Oc1ccccc1)OC(c1ccccc1)C(F)(F)F` (stereo not given), inactive: 3.32%.

Turning to `Cc1ccc(Nc2c([N+](=O)[O-])cc([N+](=O)[O-])cc2[N+](=O)[O-])cc1`, the inhibition was inactive: -4.86%. For `Cc1cccc(C)c1OP(C)(=O)Nc1ccc(SC(F)(F)F)cc1` (stereo not given) the value was inactive: -0.89%; for `CP(=O)(Nc1ccc(SC(F)(F)F)cc1)Oc1ccc(Cl)cc1` (stereo not given), inactive: -1.15%.

As for `Cc1cc(C)cc(OP(C)(=O)Nc2ccc(SC(F)(F)F)cc2)c1` (stereo not given), the inhibition is inactive: -0.66%.

In the case of `CP(=O)(NC(=O)Nc1ccccc1)Oc1ccccc1` (stereo not given), the inhibition is inactive: 0.45%.

For `CCc1ccc(OP(C)(=O)N2CCN(c3ccc([N+](=O)[O-])cc3)CC2)cc1` (stereo not given), the inhibition was inactive: -8.84%. Consider `CP(=S)(Nn1cnnc1)Oc1ccccc1` (stereo not given), for which the inhibition was inactive: -0.33%. As for `COc1ccccc1OP(C)(=O)Nc1ccccc1` (stereo not given), the figure is inactive: 2.2%; as for `CP(=O)(Nc1ccccc1Br)Oc1ccccc1` (stereo not given), inactive: 4.1%. For `CP(=O)(OC12CC3CC(CC(C3)C1)C2)OC12CC3CC(CC(C3)C1)C2` the value was inactive: -0.63%; for `CCOC(=O)c1ccc(NP(C)(=O)Oc2ccc(Cl)cc2)cc1` (stereo not given), inactive: 1.8%; for `CP(=O)(Nc1ccc(Cl)cc1)Oc1ccc(F)cc1` (stereo not given), inactive: 4.7%.

For `COc1ccccc1OP(C)(=O)Nc1ccccc1Br` (stereo not given), the inhibition is inactive: -2.67%. As for `CC(C)(C)c1ccc(OP(C)(=O)O)cc1`, the figure is inactive: -2.68%; as for `CN(C)C(=O)c1c([N+](=O)[O-])cc([N+](=O)[O-])cc1[N+](=O)[O-]`, inactive: -0.06%; as for `COc1ccc(OP(C)(=O)Nc2ccc(Br)cc2)cc1` (stereo not given), inactive: -5.24%. As for `CCN(CC)CC(O)COC(=O)C(O)(c1ccccc1)C1CCCCC1` (stereo not given), the figure is inactive: -0.15%; as for `CCc1ccc(OP(C)(=O)Nc2cccnc2)cc1` (stereo not given), inactive: -2.05%. Turning to `CP(=O)(Oc1ccccc1)N1CCOC1=O` (stereo not given), the inhibition was inactive: -1.04%. For `O=C(OCCCN1CCCC1)C(O)(c1ccccc1)C1CCCCC1` (stereo not given) the value was inactive: -2.5%; for `COc1ccccc1OP(C)(=O)Nc1c(C)n(C)n(-c2ccccc2)c1=O` (stereo not given), inactive: 1.39%; for `Cc1c(NP(C)(=O)Oc2ccc(C(C)C)cc2)c(=O)n(-c2ccccc2)n1C` (stereo not given), inactive: -0.29%. For `O=[N+]([O-])c1cc([N+](=O)[O-])c(Nc2ccccn2)c([N+](=O)[O-])c1` the value was inactive: -1.68%. For `CCc1ccc(OP(C)(=O)O)cc1` the value was inactive: -2.55%. Regarding `COc1ccccc1OP(C)(=O)Nc1ccc(C)cc1C` (stereo not given), the inhibition was inactive: -0.04%.

As for `CP(=O)(Nc1ccccn1)Oc1ccccc1` (stereo not given), the inhibition was inactive: 2.15%. As to `COc1ccccc1OP(C)(=O)Nc1ccc(Br)cc1` (stereo not given), the inhibition is inactive: -3.65%. As for `CN(C)CCOC(=O)C(O)(c1ccccc1)C1CCCC1` (stereo not given), the figure is inactive: -1.24%. As for `COc1ccc(OP(C)(=O)Nc2ccccn2)cc1` (stereo not given), the figure is inactive: 0.97%. For `CCCCCCCCCCCCCCCC1C[N+](C)(C)CCOP(C)(=O)O1` (stereo not given) the value was inactive: 2.66%; for `CP(=O)(Nc1ccc(Cl)cc1Cl)Oc1ccccc1` (stereo not given), inactive: 1.64%. As to `CP(=O)(OCCOc1ccccc1)OCCOc1ccccc1`, the inhibition was inactive: 3.44%. For the compound `Cc1cc(C)cc(OP(C)(=O)Nc2cccc(C(F)(F)F)c2)c1` (stereo not given), the inhibition is inactive: -2.23%. For the compound `O=C1C(O)=C([N+](=O)[O-])C(=O)C(O)=C1[N+](=O)[O-]`, the inhibition was inactive: 5.54%.

On to `COc1ccc(OP(C)(=O)Nc2ccccc2Br)cc1` (stereo not given), for which the inhibition was inactive: 0.43%. `COc1ccccc1OP(C)(=O)Nc1ccc(C)c(C)c1` (stereo not given): the inhibition is inactive: -0.2%. As for `CCN(CC)CCCOC(=O)C(O)(c1ccccc1)C1CCCCC1` (stereo not given), the inhibition is inactive: 3.72%.

In the case of `Cc1c([N+](=O)[O-])cc([N+](=O)[O-])c(Br)c1[N+](=O)[O-]`, the inhibition is inactive: -0.64%. As for `CCCCCOc1ccc(NP(C)(=O)Oc2ccc(Cl)cc2Cl)cc1` (stereo not given), the figure is inactive: 0.45%. Consider `O=[N+]([O-])c1cc([N+](=O)[O-])c(OC2CCCCC2O)c([N+](=O)[O-])c1` (stereo not given), for which the inhibition was inactive: -1.31%. As for `CP(=O)(Nc1ccccc1)Oc1ccc(F)cc1` (stereo not given), the inhibition was inactive: -0.48%.

`COc1ccc(OP(C)(=O)Nc2ccc(SC(F)(F)F)cc2)cc1` (stereo not given): the inhibition is inactive: -0.15%. As for `CCOC(=O)c1ccc(NP(C)(=O)Oc2ccc(F)cc2)cc1` (stereo not given), the figure is inactive: -3.33%; as for `O=C(OCCN1CCN(CCOCc2ccccc2)CC1)C(O)(c1ccccc1)c1ccccc1`, inactive: 1.89%; as for `O=C(OC1CN2CCC1CC2)c1ccc([N+](=O)[O-])cc1` (stereo not given), inactive: 6.03%. For `COc1ccc2c(c1O)-c1c(O)c(OC)cc3c1[C@H](C2)[N+](C)(C)CC3.O=[N+]([O-])c1cc([N+](=O)[O-])c([O-])c([N+](=O)[O-])c1[O-]` the value was inactive: 2.21%. For `O=[N+]([O-])c1cc([N+](=O)[O-])c(Nc2ccc(Cl)cc2)c([N+](=O)[O-])c1` the value was inactive: -5.52%; for `CC(C)c1ccc(OP(C)(=O)Nc2ccc(SC(F)(F)F)cc2)cc1` (stereo not given), inactive: 1.58%; for `CP(=O)(Nc1ccccc1F)Oc1ccccc1` (stereo not given), inactive: -0.78%. Consider `CP(=O)(Nc1ccc2c(c1)OCCO2)Oc1ccccc1` (stereo not given), for which the inhibition was inactive: -0.36%. Turning to `Cc1ccccc1NP(C)(=O)Nc1ccccc1C`, the inhibition is inactive: 1.39%. In the case of `CP(=O)(Nc1ccc(SC(F)(F)F)cc1)Oc1ccc(F)cc1` (stereo not given), the inhibition was inactive: 4.39%. As for `CCOP(C)(=S)SCC(=O)NC(C)(CC)C(=O)O` (stereo not given), the figure is inactive: 4.74%; as for `Cc1cc(-c2cccc3ccccc23)c(C)cn1.O=[N+]([O-])c1cc([N+](=O)[O-])c(O)c([N+](=O)[O-])c1`, inactive: -0.51%. Regarding `O=[N+]([O-])c1cc([N+](=O)[O-])c(NCC2CCS(=O)(=O)C2)c([N+](=O)[O-])c1` (stereo not given), the inhibition was inactive: -0.6%. On to `O=[N+]([O-])c1ccc(OP2(=O)COCCO2)cc1` (stereo not given), for which the inhibition was inactive: 3.24%. Regarding `Cc1c(C(c2ccc3c(c2)OCO3)c2c(C)n(C)n(-c3ccccc3)c2=O)c(=O)n(-c2ccccc2)n1C.O=[N+]([O-])c1cc([N+](=O)[O-])c(O)c([N+](=O)[O-])c1`, the inhibition is inactive: 1.44%.

`COc1ccc(OP(C)(=O)Nc2cccc(Br)c2)cc1` (stereo not given): the inhibition is inactive: 5.57%. Turning to `COc1ccc(NP(C)(=O)Oc2ccccc2OC)cc1` (stereo not given), the inhibition is inactive: 3.48%. As for `CN(C)CCOC(=O)C(O)(c1ccccc1)C1CCCCC1` (stereo not given), the figure is inactive: -1.59%.

These data come from PubChem BioAssay AID588664 (The Scripps Research Institute Molecular Screening Center, 2011).
